Laboratory results: US8828401B2, “Cytotoxic peptides and antibody drug conjugates thereof” (Pfizer Inc., priority 2011, dated 2014)

Tests used:
[1] = test system: MDA-MB-468 breast xenografts; test: MDA-MB-468 breast xenografts with anti-Notch ADCs; type: in vivo, female SCID Hairless Outbred (SHO) mice; settings: for tumor volume (mm^3 ± SEM): Dose 3 mg/kg Q4dx4 iv
Description: (§1) Humanized anti-Notch antibodies, hu28 and hu75, and rat-human chimeric anti-Notch antibodies, ch28 and ch75, were conjugated to various linker-payload combinations and tested in 37622A1 non-small cell lung cancer (NSCLC), HCC2429 lung cancer, MDA-MB-468 breast cancer and N87 gastric cancer xenograft models. For each model described below the first dose was given on Day 0. The tumors were measured at least once a week and their volume was calculated with the formula: tumor volume (mm^3)=0.5×(tumor width^2)(tumor length). The mean tumor volumes (±S.E.M.) for each treatment group were calculated having a maximum of 10 animals and a minimum of 6 animals to be included.
Similar in vivo experiments were performed with the MDA-MB-468 breast cancer cell line as described above. […] To generate xenografts, female SCID Hairless Outbred (SHO) mice were orthotopically implanted with 10×10^6 MDA-MB-468 cells containing 50% Matrigel (BD Biosciences) in the mammary fat pad. When the tumors reached a volume of 250 to 450 mm^3, the tumors were staged to ensure uniformity of the tumor mass among various treatment groups. The MDA-MB-468 breast model was dosed intraveneously Q4dx4 with PBS vehicle, humanized anti-Notch ADCs and control huNeg-8.8 ADCs at the doses provided in Tables 14 and 15.

37622A1 NSCLC xenografts = test: 37622A1 NSCLC patient-derived xenografts with anti-Notch ADCs; type: in vivo, nude (Nu/Nu) female mice; settings: for tumor volume (mm^3 ± SEM): 3 mg/kg Q4dx4
Description: as §1
The effects of anti-Notch ADCs were examined in immunodeficient mice on the in vivo growth of human tumor xenografts that were established from fragments of freshly resected 37622A1 NSCLC tumors obtained in accordance with appropriate consent procedures (Asterand). The 37622A1 NSCLC patient-derived xenografts were subcutaneously passaged in vivo as fragments from animal to animal in nude (Nu/Nu) female mice. When the tumors reached a volume of 150 to 300 mm^3, they were staged to ensure uniformity of the tumor size among various treatment groups. The 37622A1 NSCLC model was dosed intraveneously four times every four days (Q4dx4) with PBS vehicle, humanized anti-Notch ADCs, control huNeg-8.8 ADCs and cisplatin at the doses provided in Table 11.

B1: hu75-vc0101: humanized anti-Notch antibody hu75 conjugated to mcValCitPABC-#54 (conjugate)
heavy: EVQLVESGGGLVQPGGSLRLSCAASGYAFTDYWMTWVRQAPGKGLEWVAEISPNSGGTNFNEKFKGRFTISVDNAKNSLYLQMNSLRAEDTAVYYCARGEIRYNWFAYWGQGTLVTVSSASTKGPSVFPLAPSSKSTSGGTAALGCLVKDYFPEPVTVSWNSGALTSGVHTFPAVLQSSGLYSLSSVVTVPSSSLGTQTYICNVNHKPSNTKVDKKV[human IgG1 Fc left out]
light: DIQMTQSPSSLSASVGDRVTITCKASQNVGNNIAWYQQKPGKAPKLLIYYASNRYTGVPSRFSGSGYGTDFTLTISSLQPEDFATYYCQRLYNSPFTFGGGTKVEIKRTVAAPSVFIFPPSDEQLKSGTASVVCLLNNFYPREAKVQWKVDNALQSGNSQESVTEQDSKDSTYSLSSTLTLSKADYEKHKVYACEVTHQGLSSPVTKSFNRGEC
tumor volume (mm^3 ± SEM) ([1]; DAY 18): 90 ± 12 mm^3 | tumor volume (mm^3 ± SEM) ([1]; DAY 21): 60 ± 9 mm^3 | tumor volume (mm^3 ± SEM) ([1]; DAY 26): 16 ± 10 mm^3 | tumor volume (mm^3 ± SEM) ([1]; DAY 29): 8 ± 8 mm^3 | tumor volume (mm^3 ± SEM) ([1]; DAY 32): 7 ± 7 mm^3 | tumor volume (mm^3 ± SEM) ([1]; DAY 35): 0 ± 0 mm^3 | tumor volume (mm^3 ± SEM) ([1]; DAY 39): 0 ± 0 mm^3 | tumor volume (mm^3 ± SEM) ([1]; DAY 42): 0 ± 0 mm^3 | tumor volume (mm^3 ± SEM) ([1]; DAY 47): 0 ± 0 mm^3 | tumor volume (mm^3 ± SEM) ([1]; DAY 50): 0 ± 0 mm^3 | tumor volume (mm^3 ± SEM) ([1]; DAY 53): 0 ± 0 mm^3 | tumor volume (mm^3 ± SEM) ([1]; DAY 56): 0 ± 0 mm^3 | tumor volume (mm^3 ± SEM) ([1]; DAY 60): 0 ± 0 mm^3 | tumor volume (mm^3 ± SEM) ([1]; DAY 63): 0 ± 0 mm^3 | tumor volume (mm^3 ± SEM) ([1]; DAY 67): 0 ± 0 mm^3 | tumor volume (mm^3 ± SEM) ([1]; DAY 70): 0 ± 0 mm^3 | effect on growth of MDA-MB-468 breast xenografts (in words) ([1]; humanized ADCs, Q4dx4, doses of Tables 14 and 15): inhibited growth of MDA-MB-468 breast xenografts in a dose-dependent manner | tumor volume (mm^3 ± SEM) (37622A1 NSCLC xenografts; DAY 4): 200 ± 16 mm^3 | tumor volume (mm^3 ± SEM) (37622A1 NSCLC xenografts; DAY 7): 227 ± 16 mm^3 | tumor volume (mm^3 ± SEM) (37622A1 NSCLC xenografts; DAY 11): 175 ± 20 mm^3 | tumor volume (mm^3 ± SEM) (37622A1 NSCLC xenografts; DAY 14): 156 ± 19 mm^3 | tumor volume (mm^3 ± SEM) (37622A1 NSCLC xenografts; DAY 18): 112 ± 16 mm^3 | tumor volume (mm^3 ± SEM) (37622A1 NSCLC xenografts; DAY 21): 122 ± 27 mm^3 | tumor volume (mm^3 ± SEM) (37622A1 NSCLC xenografts; DAY 25): 137 ± 33 mm^3 | tumor volume (mm^3 ± SEM) (37622A1 NSCLC xenografts; DAY 28): 161 ± 53 mm^3 | tumor volume (mm^3 ± SEM) (37622A1 NSCLC xenografts; DAY 32): 175 ± 52 mm^3 | tumor volume (mm^3 ± SEM) (37622A1 NSCLC xenografts; DAY 35): 271 ± 79 mm^3 | tumor volume (mm^3 ± SEM) (37622A1 NSCLC xenografts; DAY 39): 319 ± 103 mm^3 | tumor volume (mm^3 ± SEM) (37622A1 NSCLC xenografts; DAY 42): 357 ± 113 mm^3 | tumor volume (mm^3 ± SEM) (37622A1 NSCLC xenografts; DAY 46): 431 ± 137 mm^3 | tumor volume (mm^3 ± SEM) (37622A1 NSCLC xenografts; DAY 49): 519 ± 135 mm^3 | tumor volume (mm^3 ± SEM) (37622A1 NSCLC xenografts; DAY 53): 678 ± 195 mm^3 | tumor volume (mm^3 ± SEM) (37622A1 NSCLC xenografts; DAY 56): 818 ± 251 mm^3 | tumor volume (mm^3 ± SEM) (37622A1 NSCLC xenografts; DAY 60): 710 ± 162 mm^3 | tumor volume (mm^3 ± SEM) (37622A1 NSCLC xenografts; DAY 63): 824 ± 191 mm^3 | tumor volume (mm^3 ± SEM) (37622A1 NSCLC xenografts; DAY 67): 938 ± 202 mm^3 | tumor volume (mm^3 ± SEM) (37622A1 NSCLC xenografts; DAY 70): 953 ± 209 mm^3 | tumor volume (mm^3 ± SEM) (37622A1 NSCLC xenografts; DAY −1): 185 ± 17 mm^3 | effect on growth of 37622A1 NSCLC xenografts (in words) (37622A1 NSCLC xenografts; Q4dx4, doses of Table 11): inhibited growth of 37622A1 NSCLC xenografts
